Experimental data: publication PMC5206724, “Insensitivity to pain induced by a potent selective closed-state Nav1.7 inhibitor” (Scientific Reports, 2017)

Chains of the proteins cited; added tags and fusions are not shown. Lines headed by an entry give the natural chain unless they say otherwise; changes in a name come on top.
UniProt Q9UQD0, whole entry: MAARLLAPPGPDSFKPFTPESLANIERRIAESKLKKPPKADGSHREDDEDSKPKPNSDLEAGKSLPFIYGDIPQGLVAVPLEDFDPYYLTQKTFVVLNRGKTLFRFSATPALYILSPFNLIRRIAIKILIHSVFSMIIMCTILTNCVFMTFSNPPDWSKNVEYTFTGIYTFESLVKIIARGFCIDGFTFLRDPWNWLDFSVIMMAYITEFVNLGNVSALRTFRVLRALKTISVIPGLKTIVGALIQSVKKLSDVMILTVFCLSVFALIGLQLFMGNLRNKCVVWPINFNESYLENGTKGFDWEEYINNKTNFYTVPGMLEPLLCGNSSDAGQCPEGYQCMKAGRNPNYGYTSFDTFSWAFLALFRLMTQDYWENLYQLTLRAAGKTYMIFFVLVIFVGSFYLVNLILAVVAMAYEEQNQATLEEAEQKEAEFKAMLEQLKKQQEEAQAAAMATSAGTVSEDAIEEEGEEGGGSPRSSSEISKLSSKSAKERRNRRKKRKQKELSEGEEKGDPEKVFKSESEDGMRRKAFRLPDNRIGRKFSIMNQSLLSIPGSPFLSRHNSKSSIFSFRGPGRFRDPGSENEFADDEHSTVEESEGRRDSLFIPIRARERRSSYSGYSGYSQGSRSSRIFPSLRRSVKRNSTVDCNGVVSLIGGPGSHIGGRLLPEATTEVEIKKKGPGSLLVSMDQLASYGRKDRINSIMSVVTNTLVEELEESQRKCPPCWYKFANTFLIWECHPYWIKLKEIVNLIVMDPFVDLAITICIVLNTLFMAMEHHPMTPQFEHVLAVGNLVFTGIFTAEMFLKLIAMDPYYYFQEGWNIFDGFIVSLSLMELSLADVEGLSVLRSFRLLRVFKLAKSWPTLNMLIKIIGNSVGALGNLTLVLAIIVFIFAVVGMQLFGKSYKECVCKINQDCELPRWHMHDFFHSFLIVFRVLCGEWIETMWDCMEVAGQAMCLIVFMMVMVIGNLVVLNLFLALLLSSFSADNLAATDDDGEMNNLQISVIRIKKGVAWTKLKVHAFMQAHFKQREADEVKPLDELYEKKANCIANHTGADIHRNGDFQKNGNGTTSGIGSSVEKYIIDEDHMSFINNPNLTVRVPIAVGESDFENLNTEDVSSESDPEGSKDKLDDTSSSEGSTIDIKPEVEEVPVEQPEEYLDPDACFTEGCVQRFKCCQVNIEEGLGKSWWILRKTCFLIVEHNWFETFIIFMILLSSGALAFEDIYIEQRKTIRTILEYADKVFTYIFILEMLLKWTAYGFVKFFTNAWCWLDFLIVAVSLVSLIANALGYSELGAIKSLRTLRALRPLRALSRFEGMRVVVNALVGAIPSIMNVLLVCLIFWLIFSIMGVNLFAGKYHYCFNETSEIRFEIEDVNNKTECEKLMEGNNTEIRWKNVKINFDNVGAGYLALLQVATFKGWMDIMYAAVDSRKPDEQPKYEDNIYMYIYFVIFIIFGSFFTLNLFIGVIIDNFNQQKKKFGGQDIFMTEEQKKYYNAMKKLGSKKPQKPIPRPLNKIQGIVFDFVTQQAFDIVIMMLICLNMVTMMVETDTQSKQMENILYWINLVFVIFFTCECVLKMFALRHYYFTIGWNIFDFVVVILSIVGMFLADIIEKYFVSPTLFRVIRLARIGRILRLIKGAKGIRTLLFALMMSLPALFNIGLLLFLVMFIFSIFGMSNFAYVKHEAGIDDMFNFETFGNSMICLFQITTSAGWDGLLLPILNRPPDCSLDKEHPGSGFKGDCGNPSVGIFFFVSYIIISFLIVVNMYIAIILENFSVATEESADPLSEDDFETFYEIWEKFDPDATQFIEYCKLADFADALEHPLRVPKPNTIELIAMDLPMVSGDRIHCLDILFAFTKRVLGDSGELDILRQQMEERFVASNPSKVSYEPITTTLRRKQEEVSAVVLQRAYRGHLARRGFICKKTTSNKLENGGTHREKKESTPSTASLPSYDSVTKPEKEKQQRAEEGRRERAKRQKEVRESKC
UniProt Q15858, whole entry: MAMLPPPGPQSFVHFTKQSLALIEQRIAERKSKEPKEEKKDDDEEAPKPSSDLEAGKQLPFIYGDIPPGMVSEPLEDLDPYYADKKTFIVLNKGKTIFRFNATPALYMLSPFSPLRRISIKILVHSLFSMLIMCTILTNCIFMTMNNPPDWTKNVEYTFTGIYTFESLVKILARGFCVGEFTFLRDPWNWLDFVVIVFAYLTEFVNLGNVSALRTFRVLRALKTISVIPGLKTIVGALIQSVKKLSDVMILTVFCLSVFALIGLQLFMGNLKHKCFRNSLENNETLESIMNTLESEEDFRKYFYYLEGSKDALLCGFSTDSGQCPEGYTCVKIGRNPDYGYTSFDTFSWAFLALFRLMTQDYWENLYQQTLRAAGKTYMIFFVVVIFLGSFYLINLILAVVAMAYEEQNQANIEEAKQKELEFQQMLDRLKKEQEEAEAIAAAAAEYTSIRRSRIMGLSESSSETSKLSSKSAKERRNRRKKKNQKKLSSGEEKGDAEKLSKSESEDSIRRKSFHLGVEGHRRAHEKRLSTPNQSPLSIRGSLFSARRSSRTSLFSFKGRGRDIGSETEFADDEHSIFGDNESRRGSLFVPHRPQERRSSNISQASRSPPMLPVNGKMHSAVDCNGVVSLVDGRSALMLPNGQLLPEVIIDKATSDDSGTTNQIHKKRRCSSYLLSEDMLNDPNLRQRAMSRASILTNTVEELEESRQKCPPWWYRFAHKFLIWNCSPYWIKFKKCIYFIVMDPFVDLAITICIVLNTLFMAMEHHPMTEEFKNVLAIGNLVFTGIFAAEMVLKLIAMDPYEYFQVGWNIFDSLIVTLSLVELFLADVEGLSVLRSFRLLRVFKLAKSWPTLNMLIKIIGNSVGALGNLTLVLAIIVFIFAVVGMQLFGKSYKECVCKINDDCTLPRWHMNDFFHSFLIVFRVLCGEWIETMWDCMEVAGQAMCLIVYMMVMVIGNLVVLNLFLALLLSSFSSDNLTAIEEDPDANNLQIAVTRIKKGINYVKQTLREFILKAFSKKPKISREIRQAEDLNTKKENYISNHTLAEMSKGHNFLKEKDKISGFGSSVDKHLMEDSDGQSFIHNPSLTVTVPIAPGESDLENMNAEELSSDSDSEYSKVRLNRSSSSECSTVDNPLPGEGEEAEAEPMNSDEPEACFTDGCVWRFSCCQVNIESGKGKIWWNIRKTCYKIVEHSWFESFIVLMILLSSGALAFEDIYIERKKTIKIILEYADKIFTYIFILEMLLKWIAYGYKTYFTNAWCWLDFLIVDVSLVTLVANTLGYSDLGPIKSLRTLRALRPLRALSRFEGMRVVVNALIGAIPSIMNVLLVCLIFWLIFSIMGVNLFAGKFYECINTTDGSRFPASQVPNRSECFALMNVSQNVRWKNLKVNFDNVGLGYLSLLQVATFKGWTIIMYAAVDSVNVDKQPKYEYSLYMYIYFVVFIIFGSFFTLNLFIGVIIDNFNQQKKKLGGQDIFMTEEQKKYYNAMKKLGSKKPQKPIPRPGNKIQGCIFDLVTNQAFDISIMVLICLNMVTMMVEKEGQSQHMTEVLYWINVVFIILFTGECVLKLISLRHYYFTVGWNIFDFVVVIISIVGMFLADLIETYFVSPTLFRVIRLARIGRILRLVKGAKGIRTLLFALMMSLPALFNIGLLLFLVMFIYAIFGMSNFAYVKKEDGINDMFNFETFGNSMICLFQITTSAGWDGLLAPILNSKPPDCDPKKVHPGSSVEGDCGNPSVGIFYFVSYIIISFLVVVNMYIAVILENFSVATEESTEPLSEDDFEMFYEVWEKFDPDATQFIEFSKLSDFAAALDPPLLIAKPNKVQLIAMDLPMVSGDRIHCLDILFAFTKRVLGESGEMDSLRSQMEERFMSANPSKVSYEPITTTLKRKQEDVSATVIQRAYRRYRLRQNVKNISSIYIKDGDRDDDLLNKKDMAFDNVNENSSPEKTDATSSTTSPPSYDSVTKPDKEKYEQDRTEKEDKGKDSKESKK
UniProt P41145: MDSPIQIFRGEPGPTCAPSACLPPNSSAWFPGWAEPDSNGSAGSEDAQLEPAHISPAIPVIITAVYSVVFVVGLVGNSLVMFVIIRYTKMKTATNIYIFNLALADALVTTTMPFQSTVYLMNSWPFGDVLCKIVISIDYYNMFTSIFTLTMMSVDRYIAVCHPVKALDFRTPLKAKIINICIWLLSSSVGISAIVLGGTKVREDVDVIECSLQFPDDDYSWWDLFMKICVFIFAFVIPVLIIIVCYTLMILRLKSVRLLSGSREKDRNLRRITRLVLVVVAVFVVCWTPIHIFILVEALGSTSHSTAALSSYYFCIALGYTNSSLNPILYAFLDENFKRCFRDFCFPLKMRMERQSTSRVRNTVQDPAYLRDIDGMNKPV
UniProt Q9NY46, whole entry: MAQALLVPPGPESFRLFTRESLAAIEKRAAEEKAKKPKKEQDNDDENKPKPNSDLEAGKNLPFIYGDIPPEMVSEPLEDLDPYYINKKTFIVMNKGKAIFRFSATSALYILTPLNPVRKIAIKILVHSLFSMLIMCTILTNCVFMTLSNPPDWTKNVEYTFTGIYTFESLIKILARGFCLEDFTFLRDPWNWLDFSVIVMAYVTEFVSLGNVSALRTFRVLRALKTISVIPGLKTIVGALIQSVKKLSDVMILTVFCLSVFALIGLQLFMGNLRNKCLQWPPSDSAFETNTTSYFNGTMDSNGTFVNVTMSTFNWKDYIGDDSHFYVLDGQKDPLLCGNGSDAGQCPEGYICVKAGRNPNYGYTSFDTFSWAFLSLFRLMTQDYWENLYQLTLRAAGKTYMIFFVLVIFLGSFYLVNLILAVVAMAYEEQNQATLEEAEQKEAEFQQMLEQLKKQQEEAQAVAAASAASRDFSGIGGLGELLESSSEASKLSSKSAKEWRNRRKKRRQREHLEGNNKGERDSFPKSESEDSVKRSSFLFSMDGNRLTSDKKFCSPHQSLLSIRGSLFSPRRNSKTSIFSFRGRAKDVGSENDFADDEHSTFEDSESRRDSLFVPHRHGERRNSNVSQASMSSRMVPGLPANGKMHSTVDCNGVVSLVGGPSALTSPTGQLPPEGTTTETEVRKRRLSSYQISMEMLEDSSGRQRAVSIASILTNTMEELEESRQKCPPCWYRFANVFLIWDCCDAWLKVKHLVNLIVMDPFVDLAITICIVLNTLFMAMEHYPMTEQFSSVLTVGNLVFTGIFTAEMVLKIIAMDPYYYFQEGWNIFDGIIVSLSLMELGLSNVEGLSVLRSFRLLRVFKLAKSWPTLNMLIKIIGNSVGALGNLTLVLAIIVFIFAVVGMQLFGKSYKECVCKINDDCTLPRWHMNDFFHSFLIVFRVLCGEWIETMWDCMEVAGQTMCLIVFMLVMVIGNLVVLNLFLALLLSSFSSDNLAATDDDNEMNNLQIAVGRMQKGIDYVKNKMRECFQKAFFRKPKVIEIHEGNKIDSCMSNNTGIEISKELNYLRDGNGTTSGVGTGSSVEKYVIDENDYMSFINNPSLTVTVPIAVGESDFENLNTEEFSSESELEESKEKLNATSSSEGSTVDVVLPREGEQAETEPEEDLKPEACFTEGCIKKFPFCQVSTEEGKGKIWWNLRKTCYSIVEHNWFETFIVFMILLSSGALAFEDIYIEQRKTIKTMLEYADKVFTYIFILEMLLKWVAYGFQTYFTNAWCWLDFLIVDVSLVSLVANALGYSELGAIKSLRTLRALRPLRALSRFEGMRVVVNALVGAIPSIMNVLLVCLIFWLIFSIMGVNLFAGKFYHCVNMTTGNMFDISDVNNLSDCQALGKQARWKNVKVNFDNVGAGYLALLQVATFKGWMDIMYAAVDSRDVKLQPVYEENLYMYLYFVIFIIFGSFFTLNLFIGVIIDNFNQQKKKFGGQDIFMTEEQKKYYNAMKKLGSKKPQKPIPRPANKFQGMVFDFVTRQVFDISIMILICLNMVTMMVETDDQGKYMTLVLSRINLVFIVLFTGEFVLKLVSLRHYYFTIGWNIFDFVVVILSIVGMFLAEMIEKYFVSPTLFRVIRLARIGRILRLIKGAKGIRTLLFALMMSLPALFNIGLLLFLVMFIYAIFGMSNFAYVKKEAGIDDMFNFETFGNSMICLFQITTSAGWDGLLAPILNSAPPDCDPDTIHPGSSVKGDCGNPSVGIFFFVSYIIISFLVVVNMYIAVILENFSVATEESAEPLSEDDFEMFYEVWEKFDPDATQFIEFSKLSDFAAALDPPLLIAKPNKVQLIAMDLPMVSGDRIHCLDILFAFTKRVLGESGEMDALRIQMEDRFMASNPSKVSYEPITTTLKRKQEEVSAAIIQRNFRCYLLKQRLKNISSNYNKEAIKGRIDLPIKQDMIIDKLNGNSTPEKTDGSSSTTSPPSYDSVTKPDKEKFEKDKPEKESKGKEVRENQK

Columns and labels:
[1] = target: T1, hNav1.5 (Homo sapiens, UniProt Q14524)
[2] = target: T2, hNav1.4 (Homo sapiens, UniProt P35499); assay: cell-based; type: cell-based
[3] = target: T3, hNav1.6 (Homo sapiens, UniProt Q9UQD0); assay: cell-based; type: cell-based
[4] = target: T1, hNav1.5; assay: cell-based
[5] = target: T4, hNav1.2 (Homo sapiens, UniProt Q99250); assay: cell-based; type: cell-based
[6] = target: T5, hNav1.1 (Homo sapiens, UniProt P35498); assay: cell-based; type: cell-based
[7] = target: T6, hNav1.7 (Homo sapiens, UniProt Q15858); assay: cell-based
T6 construct: host or cells: HEK293

[8] = target: T4, hNav1.2; assay: cell-based; type: cell-based; remark: listed apart in the source
[9] = target: T1, hNav1.5; assay: cell-based; type: cell-based
[10] = target: T6, hNav1.7; assay: cell-based; conditions: manual patch clamp (MPC), holding −120 mV, test −10 mV, 0.1% BSA, 22–24 °C; read-out: pIC50 hNav1.7 (converted)
[11] = target: T5, hNav1.1; type: cell-based
[12] = target: mu opioid receptor (Homo sapiens, UniProt P35372); assay: Opioid receptor cAMP HTRF assay, mu; type: cell-based
[13] = target: T3, hNav1.6; type: cell-based
[14] = target: delta opioid receptor (Homo sapiens, UniProt P41143); assay: Opioid receptor cAMP HTRF assay, delta; type: cell-based
[15] = target: T2, hNav1.4; assay: cell-based; type: cell-based; remark: listed apart in the source
[16] = target: kappa opioid receptor (Homo sapiens, UniProt P41145); assay: Opioid receptor cAMP HTRF assay, kappa; type: cell-based
[17] = target: hNav1.3 (Homo sapiens, UniProt Q9NY46); type: cell-based

Structure (SMILES): CSCC[C@@H]1NC(=O)CNC(=O)[C@H](CCC(=O)O)NC(=O)[C@@H]2CSSC[C@H](NC(=O)[C@H](Cc3ccc(O)cc3)NC(=O)[C@@H]3CCCN3C(=O)CN)C(=O)N[C@@H](CCC(N)=O)C(=O)N[C@@H](CCCCN)C(=O)N[C@@H](Cc3c[nH]c4ccccc34)C(=O)N[C@@H](CCSC)C(=O)N[C@@H](CCC(N)=O)C(=O)N[C@@H]([C@@H](C)O)C(=O)N[C@H]3CSSC[C@H](NC(=O)[C@H](C(C)C)NC1=O)C(=O)N[C@@H](CCCNC(=N)N)C(=O)N[C@@H](CC(C)C)C(=O)N[C@@H](Cc1c[nH]c4ccccc14)C(=O)N[C@H](C(=O)N[C@@H](CCCCN)C(=O)N[C@@H](CCCCN)C(=O)N[C@@H](CCCCN)C(=O)N[C@@H](CC(C)C)C(=O)N[C@@H](CC(C)C)C(=O)O)CSSC[C@H](NC(=O)[C@H](CCCCN)NC(=O)[C@H](CCCNC(=N)N)NC(=O)[C@H](CCC(=O)O)NC(=O)[C@H](CO)NC(=O)[C@H](CC(=O)O)NC3=O)C(=O)N2 [JNJ63955918]
- Fold Nav1.7 selectivity vs hNav1.5 [1]: >1000 Fold
- Fold Nav1.7 selectivity vs hNav1.4 [2]: 501.2 Fold
- IC50 ([2]; manual patch clamp, holding −120 mV, test −10 mV, 0.1% BSA, 22–24 °C, read-out: pIC50 hNav1.4 (converted)): 5010 nM
- Fold Nav1.7 selectivity vs hNav1.6 [3]: 251.2 Fold
- IC50 ([3]; QPatch, CHO cells, holding −60 mV, 0.1% BSA, ~22 °C, ± SEM, read-out: pIC50 hNav1.6 (converted)): 2510 nM
- IC50 [4]: > 10000 nM
- Fold Nav1.7 selectivity vs hNav1.2 [5]: 158.5 Fold
- IC50 [5]: 1580 nM
- Fold Nav1.7 selectivity vs hNav1.1 [6]: 631 Fold
- IC50 ([6]; QPatch, CHO cells, holding −60 mV, 0.1% BSA, ~22 °C, ± SEM, read-out: pIC50 hNav1.1 (converted)): 6310 nM
- IC50 ([7]; read-out: pIC50 hNav1.7 (converted)): 10 nM
- Fold Nav1.7 selectivity vs hNav1.2 [8]: 79.4 Fold
- IC50 [8]: 794 nM
- Fold Nav1.7 selectivity vs hNav1.5 [9]: >316.2 fold
- IC50 [9]: > 3160 nM
- IC50 [10]: 10 nM
- Fold Nav1.7 selectivity vs hNav1.1 [11]: 1000 Fold
- EC50 ([12]; printed as pIC50 or pEC50, read-out: pEC50 mu opioid receptor (agonist) (converted)): > 2510 nM
- IC50 ([12]; printed as pIC50 or pEC50, read-out: pIC50 mu opioid receptor (antagonist) (converted)): > 2510 nM
- Fold Nav1.7 selectivity vs hNav1.6 [13]: 100 Fold
- EC50 ([14]; printed as pIC50 or pEC50, read-out: pEC50 delta opioid receptor (agonist) (converted)): > 2510 nM
- IC50 ([14]; printed as pIC50 or pEC50, read-out: pIC50 delta opioid receptor (antagonist) (converted)): > 2510 nM
- Fold Nav1.7 selectivity vs hNav1.4 [15]: 1584.9 Fold
- IC50 ([15]; QPatch, HEK293 cells, holding −75 mV, 0.1% BSA, ~22 °C, ± SEM, read-out: pIC50 hNav1.4 (converted)): 15800 nM
- EC50 ([16]; printed as pIC50 or pEC50, read-out: pEC50 kappa opioid receptor (agonist) (converted)): > 2510 nM
- IC50 ([16]; printed as pIC50 or pEC50, read-out: pIC50 kappa opioid receptor (antagonist) (converted)): > 2510 nM

Structure (SMILES): CSCC[C@@H]1NC(=O)CNC(=O)[C@H](CCC(=O)O)NC(=O)[C@@H]2CSSC[C@H](NC(=O)[C@@H](N)Cc3ccc(O)cc3)C(=O)N[C@@H](CCC(N)=O)C(=O)N[C@@H](CCCCN)C(=O)N[C@@H](Cc3c[nH]c4ccccc34)C(=O)N[C@@H](CCSC)C(=O)N[C@@H](Cc3c[nH]c4ccccc34)C(=O)N[C@@H]([C@@H](C)O)C(=O)N[C@H]3CSSC[C@H](NC(=O)[C@H](C(C)C)NC1=O)C(=O)N[C@@H](CCCNC(=N)N)C(=O)N[C@@H](CC(C)C)C(=O)N[C@@H](Cc1c[nH]c4ccccc14)C(=O)N[C@H](C(=O)N[C@@H](CCCCN)C(=O)N[C@@H](CCCCN)C(=O)N[C@@H](CCCCN)C(=O)N[C@@H](CC(C)C)C(=O)N[C@@H](Cc1c[nH]c4ccccc14)C(=O)O)CSSC[C@H](NC(=O)[C@H](CCCCN)NC(=O)[C@H](CCCNC(=N)N)NC(=O)[C@H](CCC(=O)O)NC(=O)[C@H](CO)NC(=O)[C@H](CC(=O)O)NC3=O)C(=O)N2 [ProTX-II, reference compound]
- Fold Nav1.7 selectivity vs hNav1.6 [3]: 39.5 fold
- Fold Nav1.7 selectivity vs hNav1.1 [6]: 19.8 fold
- Emax ([7]; read-out: Fitted Emax hNav1.7): 88.8 ± 3.1%
- Fold Nav1.7 selectivity vs hNav1.2 [8]: 99.3 fold
- Fold Nav1.7 selectivity vs hNav1.5 [9]: 497.6 fold
- Fold Nav1.7 selectivity vs hNav1.3 [17]: 31.4 fold
- Fold Nav1.7 selectivity vs hNav1.4 [15]: 99.3 fold

Where two headings read alike, the source gives them in different places.
